Experimental data published in patent US10093642B2, “Multitarget hedgehog pathway inhibitors and uses thereof” (UNIVERSITA' DEGLI STUDI DI SIENA, priority 2013, dated 2018).

Target: T1, SMO receptor (UniProt P56726)
T1 construct: fused on or other part: Possibly a C-terminal Myc3 tag, if the construct is Smo-Myc3 of Chen et al. 2002
Assay: Displacement assay with Bodipy-cyclopamine in HEK293 cells transfected with SMO
Format: binding
Conditions: positive control, 1 μM

Substance: 3-Keto-N-(aminoethyl-aminocaproyl-dihydrocinnamoyl)-cyclopamine [KAAD, reference compound]
- Bodipy-cyclopamine binding to cells expressing SMO: abrogated BC binding
